Measurements taken from PMC3977535, “Design and Synthesis of New Dual Binding Site Cholinesterase Inhibitors: in vitro Inhibition Studies with in silico Docking” (Letters in Drug Design & Discovery, 2014).

Sequences of proteins named here, by UniProt entry; tags and fusion partners are left off. Residues count along the entry.
UniProt P06276, 29-602: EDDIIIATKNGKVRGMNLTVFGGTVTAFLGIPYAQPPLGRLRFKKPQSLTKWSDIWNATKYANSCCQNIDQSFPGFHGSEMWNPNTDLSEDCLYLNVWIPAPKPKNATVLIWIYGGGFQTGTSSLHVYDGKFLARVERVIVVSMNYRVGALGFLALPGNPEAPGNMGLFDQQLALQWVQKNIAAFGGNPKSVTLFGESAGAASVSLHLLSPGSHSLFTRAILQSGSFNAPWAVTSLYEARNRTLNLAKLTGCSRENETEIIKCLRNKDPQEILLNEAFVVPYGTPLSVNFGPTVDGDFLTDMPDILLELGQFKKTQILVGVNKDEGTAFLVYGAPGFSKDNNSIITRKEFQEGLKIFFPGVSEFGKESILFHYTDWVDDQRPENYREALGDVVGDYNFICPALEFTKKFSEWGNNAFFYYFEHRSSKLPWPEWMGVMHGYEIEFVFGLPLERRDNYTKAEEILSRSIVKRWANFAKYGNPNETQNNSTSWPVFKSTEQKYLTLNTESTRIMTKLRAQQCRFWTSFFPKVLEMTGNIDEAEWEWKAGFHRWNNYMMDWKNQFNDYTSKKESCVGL
UniProt P22303, 32-614: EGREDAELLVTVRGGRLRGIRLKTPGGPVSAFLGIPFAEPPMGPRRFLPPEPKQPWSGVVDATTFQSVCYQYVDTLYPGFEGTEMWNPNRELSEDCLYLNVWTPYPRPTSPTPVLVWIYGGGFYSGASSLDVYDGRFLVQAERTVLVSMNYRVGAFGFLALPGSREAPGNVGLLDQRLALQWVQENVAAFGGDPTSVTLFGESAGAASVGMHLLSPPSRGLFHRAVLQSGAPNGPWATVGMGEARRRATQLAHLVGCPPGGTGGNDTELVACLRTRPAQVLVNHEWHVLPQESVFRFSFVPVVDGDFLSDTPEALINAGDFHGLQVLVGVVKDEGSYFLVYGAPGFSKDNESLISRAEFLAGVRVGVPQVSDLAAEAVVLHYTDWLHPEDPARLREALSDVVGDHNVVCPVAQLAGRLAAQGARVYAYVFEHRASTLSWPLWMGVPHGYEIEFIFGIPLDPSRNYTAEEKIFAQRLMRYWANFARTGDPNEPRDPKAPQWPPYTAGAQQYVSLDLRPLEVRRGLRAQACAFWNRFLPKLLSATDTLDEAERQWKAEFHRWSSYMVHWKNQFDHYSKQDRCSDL

Key:
BChE = molecular target: T1, BChE (Homo sapiens, UniProt P06276); assay: BChE inhibition assay (Ellman method with slight modifications); assay type: biochemical; details: 0.5 mM test compound; mean with SEM
T1 construct: purchased Sigma Inc
Experimental: (§1) The AChE and BChE inhibition activity was performed according to the method of Ellman with slight modifications. Total volume of the reaction mixture was 100 µL contained 60 µL Na2HPO4 buffer with concentration of 50 mM and pH 7.7. A 10 µL test compound (0.5 mM per well) was added, followed by the addition of 10 µL enzyme (0.005 unit AChE, 0.5 unit BChE per well, Sigma Inc). […] The reaction was initiated by the addition of 10 µL of 0.5 mM per well substrate (acetylthiocholine iodide or butyrylthiocholine bromide), followed by the addition of 10 µL DTNB (0.5 mM per well). […] Synergy HT (BioTek, USA) 96-well plate reader was used in all experiments. All experiments were carried out with their respective controls in triplicate. […] The percent inhibition was calculated by the help of following equation.
(§2) Inhibition%=Control−Test/Control×100

AChE = molecular target: T2, AChE (Homo sapiens, UniProt P22303); assay type: biochemical; details: 0.5 mM test compound; mean with SEM
T2 construct: purchased Sigma Inc
Experimental: as §1, §2

CNC(=O)Oc1ccc2c(c1)[C@]1(C)CCN(C)[C@@H]1N2C [Eserine, reference compound]
BChE Inhibition, Inhibition (%) at 0.5 mM (BChE): 82.82±1.09%
AChE Inhibition, Inhibition (%) at 0.5 mM (AChE): 91.29±1.17%
